# Measured affinities in a library of Ab-14 heavy chain variants

All variants were tested on one target, the spike HR2 peptide PDVDLGDISGINAS (SARS-CoV-2).

Parent scFv Ab-14: VH joined to VL by a 15-residue (Gly4Ser)3 linker. Changes lie in the heavy chain CDRs alone.
VH: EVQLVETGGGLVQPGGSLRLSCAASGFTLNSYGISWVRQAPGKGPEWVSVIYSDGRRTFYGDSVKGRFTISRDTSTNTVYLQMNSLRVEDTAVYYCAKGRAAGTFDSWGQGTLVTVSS
VL: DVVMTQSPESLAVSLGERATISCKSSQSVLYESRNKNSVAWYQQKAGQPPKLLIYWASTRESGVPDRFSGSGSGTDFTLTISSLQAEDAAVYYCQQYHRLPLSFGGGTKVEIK

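The starting antibody came from a phage panning campaign against this peptide. Designed CDR sequences, proposed from the first random library and measured here. Several design methods are mixed in this list. The assay is AlphaSeq: two haploid yeast populations carry antibody and antigen on their surface. Mating (16 h, 30 °C) was followed by selection of diploids and sequencing of their barcodes. Scores were corrected for input abundance and mapped to Kd with protein pairs of known affinity run in the same pool. Mating was done six times.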

The parent's heavy chain CDRs are GFTLNSYGIS, VIYSDGRRTFYGDSVK, GRAAGTFDS; each variant's own CDRs replace them letter for letter.
This list holds designs with more than six substitutions.
Each Kd is an estimate from the mating assay, the geometric mean of the replicates in which the pair was seen; lower is stronger.
Where no diploid with the target was found in any replicate, the entry reads "no signal": below detection, most likely a poor binder, though not proof of it.
Order: sorted from the lowest average up, undetected variants last.
As a blank, each scFv also met three strains without target: over all heavy chain designs, 1% of these pairings were detected, typically at 120 nM and seldom below 7.0 nM.
In the paper, a design with two or fewer of six values counts as a poor binder.
A sequence measured in both rounds can read differently, since the two assays cover different ranges.

For GFDLNEYGIS / VIYADGMRTFYADSVK / GEHAGTFDI, the assay gave 100 pM (6 of 6 replicates). The variant GFDLNEYGIS / VIYADGMRTAYVDSVK / GNVAGTFDV gave 140 pM (6 of 6 replicates). The variant GFDLNEYGIS / VIYADGQRTAYADSVK / GVNAGTFDV gave 170 pM (6 of 6 replicates). The variant GFDLNEYGIS / VIYADGVRTAYADNVK / GNVAGTFDQ gave 170 pM (6 of 6 replicates). The variant GFDLNEYGIS / VIYADGKRTFYTDSVK / GNVAGTFDV gave 240 pM (6 of 6 replicates).

With GFDLNEYGIS / VIYADGRRTAYIDSVK / GNNAGTFDQ the result was 270 pM (6 of 6 replicates). For GFDLDEYGIS / VIYADGMRKAYADSVK / GNTAGTFDV, the assay gave 290 pM (6 of 6 replicates). The variant GFDLNEYGIS / VIYADGVRTFYSDSVK / GTVAGTFDV showed 320 pM (6 of 6 replicates). The variant GFDLDEYGIS / VIYADGKRTYYADSVK / GNTAGTFDV showed 320 pM (6 of 6 replicates). The variant GFNLMEYGIS / VIYADGTRTAYANTVK / GKYVDTFVD showed 350 pM (6 of 6 replicates).

The variant GFDLDEYGIS / VIYADGVRTAYSDSVK / GTNAGTFDV gave 350 pM (6 of 6 replicates). With GFEIQDYGIS / VIYADGLRTAYSDKFK / GIIAGTFNS the result was 380 pM (6 of 6 replicates). With GFNLDEYGIS / VIYADGMRTAYADSVK / GEVAGTFDV the result was 400 pM (6 of 6 replicates). For GFDLNEYGIS / VIYADGVRQAYADSVK / GNVAGTFDL, the assay gave 440 pM (6 of 6 replicates). With GFDLNEYGIS / VIYADGVRTFYADSVK / GQLAGTFSV the result was 460 pM (6 of 6 replicates).

The variant GFDLDEYGIS / VIYADGMRTAYADSVK / GETAGTFDV gave 500 pM (6 of 6 replicates). With GFDLNEYGIS / VIYADGKRTAYADNVK / GNTAGTFDV the result was 510 pM (6 of 6 replicates). For GFDLNEYGIS / VIYADGVRTAYSDSVK / GNNAGTFDI, the assay gave 570 pM (6 of 6 replicates). The variant GFDLNEYGIS / VIYADGSRTAYADSVK / GGNAGTFDI showed 570 pM (6 of 6 replicates). The variant GFDLNEYGIS / VIYADGMRTAYADSVK / GGNAGTFDI gave 610 pM (6 of 6 replicates).

The variant GFDLNEYGIS / VIYADGLRTAYADSVK / GENAGTFDT showed 750 pM (6 of 6 replicates). For GFDLNEYGIS / VIYADGRRTFYSDSVK / GEVAGTFVV, the assay gave 870 pM (6 of 6 replicates). The variant GFNLNEYGIS / VIYADGRRTFYADSVK / GGTAGTFDV showed 940 pM (6 of 6 replicates). The variant GFDLNEYGIS / VIYADGSRTFYADSVK / GNAAGTFDV showed 960 pM (6 of 6 replicates). The variant GFDLDEYGIS / VIYADGRRTAYIDSVK / GENAGTFDV showed 980 pM (6 of 6 replicates).

The variant GFDLNEYGIS / VIYADGMRTAYVDDVK / GNVAGTFDM showed 1.0 nM (6 of 6 replicates). For GFDLNEYGIS / VIYADGKRTFYSDSVK / GTNGGTFDM, the assay gave 1.1 nM (6 of 6 replicates). With GFDLNEYGIS / VIYADGLRTAYSDSVK / GENAGTFDV the result was 1.8 nM (6 of 6 replicates). The variant GFDLNEYGIS / VIYADGRRTAYSDSVK / GEAGGTFDN gave 2.9 nM (5 of 6 replicates). For GFDLNEYGIS / VIYADGRRTAYSDSVK / GTAGGTFDM, the assay gave 3.5 nM (6 of 6 replicates).

For GFDLDEYGIS / VIYADGMRTAYANSVK / GENAGTFDV, the assay gave 3.6 nM (5 of 6 replicates). The variant GFNLGEYGIS / VIYADGKRTAYSESVK / GNSAGTFNH showed 3.9 nM (6 of 6 replicates). With GFDLNEYGIS / VIYADGVRTAYSDSVK / GNTAGTFDL the result was 9.1 nM (6 of 6 replicates). The variant GENIEEYGIS / VIYADGRRTAYAEPVK / GDSGGTIDT gave 39 nM (1 of 6 replicates). For GFELSEYGIS / VIYADGIRTNYSQNVK / GTLAGTFTQ, the assay gave 44 nM (5 of 6 replicates).

The variant GFGMEEYGIS / VIYADGQRLAYADEVK / GENAGSFDI showed 76 nM (2 of 6 replicates). For GQSLDDYGIS / VIYADGKRKAYVDEVK / GYVAGTFDI, the assay gave 87 nM (3 of 6 replicates). The variant GFDFQEYGIS / VIYADGQRAVYSDAVK / GNIGAIFSD showed 140 nM (2 of 6 replicates). For GEDLDEYGIS / VIYADGRRVVYQDQVK / GELAGTVDQ, the assay gave 460 nM (5 of 6 replicates). With GDDLEAYGIS / VIYADGMRTYYSDQVK / GNVNGTFFD the result was 210 µM (1 of 6 replicates).

The variant GFDINEYGIS / VIYADGQRVAYTNSFK / GTQAGNNIN showed no signal (0 of 6 replicates). With GFELNEYGIS / VIYADGMKQAYRDDVK / GDIAGNFMQ the result was no signal (0 of 6 replicates). With GFGLDEYGIS / VIYADGQRKFYADNVK / GVFGSLGQV the result was no signal (0 of 6 replicates). The variant GFNLDEYGIS / VIYADGRRTAYQDSVK / GEVAGTFDF showed no signal (0 of 6 replicates). With GFDVQEYGIS / VIYADGRRTQYTDAVK / GKLNMVLFV the result was no signal (0 of 6 replicates).

The variant GDNLDEYGIS / VIYADGHRTAYSNPVK / GEYGVTVGD showed no signal (0 of 6 replicates). The variant GFNLEEYGIS / VIYADGMRSEYSDNVK / GHKGNWFQD showed no signal (0 of 6 replicates). For GFDLNEYGIS / VIYADGRRTFYADSVK / GKNAGTFTV, the assay gave no signal (0 of 6 replicates).

A selection of 4 entries from above:

GFEIQDYGIS / VIYADGLRTAYSDKFK / GIIAGTFNS: 380 pM (6 of 6 replicates).
GFDLDEYGIS / VIYADGMRTAYADSVK / GETAGTFDV: 500 pM (6 of 6 replicates).
GFDLNEYGIS / VIYADGVRTFYSDSVK / GTVAGTFDV: 320 pM (6 of 6 replicates).
GFDFQEYGIS / VIYADGQRAVYSDAVK / GNIGAIFSD: 140 nM (2 of 6 replicates).

Values reported by Li et al. 2023, doi:10.1038/s41467-023-39022-2 (FLAb copy).